Data set [1] deals with L1210. As to the kind of experiment: Compound was tested for anticancer activities against L1210 leukemia in CD2F1 male mice at dose of 50 mg/kg per day; 7.1/7.
Data set [2] concerns P388. In words: Antineoplastic activities against P388 leukemia in CD2F1 male mice. It is filed as functional, Mus musculus. The essentials: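 P388 leukemia: CD2F1 male mice (18-20 g, six per group) received 10^6 cells ip on day 0. Drug injected ip daily on days 1-9. Survival followed 30 days, with some groups to 60 days. Activity read as treated/control mean survival time (T/C), with %ILS calculated as [(T - C)/C] × 100. NCI protocol.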

Data set [3] has as its system L1210. In words: Anticancer activities against L1210 leukemia in CD2F1 male mice at dose of 50 mg/kg per day.
Data set [4] relates to L1210. As to the kind of experiment: Compound was tested for anticancer activities against L1210 leukemia in CD2F1 male mice at dose of 50 mg/kg per day.
Data set [5] has as its system P388. In words: Number of cures from P388 leukemia in CD2F1 male mice as tumor-free survivors after day 60.
Data set [6] has as its system P388. As to the kind of experiment: Antineoplastic activity against P388 leukemia in CD2F1 male mice and the average percentage weight change on day 5 was measured.
Data set [7] deals with L1210. In words: Compound was tested for anticancer activities against L1210 leukemia in CD2F1 male mice at dose of 50 mg/kg per day; 0/6.
Data set [8] deals with P388. In words: Antineoplastic activity against P388 leukemia in CD2F1 male mice and the percent increase in life span was measured on day 30.
The test system of data set [9] is L1210. As to the kind of experiment: Compound was tested for anticancer activities against L1210 leukemia in CD2F1 male mice at dose of 50 mg/kg per day; 7.0/7.
For data set [10], the system named is P388. As to the kind of experiment: Compound was tested for its antineoplastic activities against P388 leukemia in CD2F1 male mice.
Data set [11] is described as follows: Therapeutic ratio as optimum dose/dose ILS40. The method, boiled down: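 Therapeutic ratio derived from the P388/L1210 survival data (CD2F1 male mice, ip daily dosing days 1-9). Optimum dose is the daily dose giving maximum increase in life span. ILS40 dose is the daily dose giving a 40% increase in life span over controls.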
Data set [12] has as its system P388. In words: Compound was tested for number of cures from P388 leukemia in CD2F1 male mice as tumor-free survivors after day 60; 2/6.
For data set [13], the system named is L1210. In words: Compound was tested for anticancer activities against L1210 leukemia in CD2F1 male mice at dose of 50 mg/kg per day; 9.3/7.
Data set [14] relates to P388. In words: Compound was tested for its antineoplastic activity against P388 leukemia in CD2F1 male mice and the percent increase in life span was measured on day 30.
Data set [15] has as its system L1210. As to the kind of experiment: Compound was tested for anticancer activities against L1210 leukemia in CD2F1 male mice at dose of 50 mg/kg per day; 7.4/7.
Data set [16] concerns L1210. As to the kind of experiment: Compound was tested for anticancer activities against L1210 leukemia in CD2F1 male mice at dose of 50 mg/kg per day; 9.0/7.
For data set [17], the system named is L1210. In words: Compound was tested for anticancer activities against L1210 leukemia in CD2F1 male mice at dose of 25 mg/kg per day.
Data set [18] deals with L1210. In words: Compound was tested for anticancer activities against L1210 leukemia in CD2F1 male mice at dose of 50 mg/kg per day; 8.6/7.
Data set [19] concerns L1210. As to the kind of experiment: Compound was tested for anticancer activities against L1210 leukemia in CD2F1 male mice at dose of 25 mg/kg per day; 0/6.
Data set [20] has as its system L1210. As to the kind of experiment: Compound was tested for anticancer activities against L1210 leukemia in CD2F1 male mice at dose of 25 mg/kg per day; 8.2/7.
Data set [21] relates to L1210. As to the kind of experiment: Compound was tested for anticancer activities against L1210 leukemia in CD2F1 male mice at dose of 25 mg/kg per day; 7.7/7.
The subject of data set [22] is L1210. As to the kind of experiment: Compound was tested for anticancer activities against L1210 leukemia in CD2F1 male mice at dose of 25 mg/kg per day; 6.4/7.

The term T/C denotes the result in the treated group divided by that in the control group, in per cent. `CC1(C)CC(NC(=O)NP(=O)(N2CC2(C)C)N2CC2(C)C)CC(C)(C)N1O` (stereo not given) gave a T/C survival days in the data set on L1210 [1] of 7.1. Also, the Optimal dose in the data set on P388 [2] was 90. The ILS in the data set on L1210 [3] stood at 1%; in the data set on P388 [8], 44%. For the same molecule, the T/C in the data set on L1210 [4] was 101%. Also, the Cures (survivors/total) in the data set with P388 [5] was 0. Moreover, the Weight change on day 5 in the data set with P388 [6] turned out to be 4.8%. Further, the Survivors at day 30 in the data set on L1210 [7] stood at 0.

The molecule `CC1(C)CC(NC(=O)NP(=O)(N2CC2(C)C)N2CC2(C)C)C(C)(C)N1O` (stereo not given) yielded an Optimal dose in the data set with P388 [2] of 90. The ILS is 0% in the data set on L1210 [3] and 40% with P388 [8]. In addition, in the data set on L1210 [4], the T/C amounted to 100%. This molecule also displayed a T/C survival days with L1210 [9] of 7. Also, in the data set with P388 [5], the Cures (survivors/total) amounted to 0. For the same molecule, the Weight change on day 5 in the data set with P388 [6] came out at 6.1%. The Survivors at day 30 with L1210 [7] is 0.

Regarding `CC1(C)CC(NC(=O)NP(=O)(N2CC2)N2CC2)CC(C)(C)N1O`, the ILS40 (mg kg-1 day-1) in the data set with P388 [10] is 16. This molecule returned an Optimal dose in the data set with P388 [2] of 100. Also, the Therapeutic ratio in data set [11] is 6.2. The values for the ILS in the data set with L1210 [3] and in the data set on P388 [8] were 33% and 153%, respectively. Further, the T/C in the data set with L1210 [4] stood at 133%. This molecule also showed a Cures (survivors/total) with P388 [12] of 2. Also, the T/C survival days with L1210 [13] came to 9.3. Besides, the Weight change on day 5 in the data set on P388 [6] was -4.5%. Further, in the data set on L1210 [7], the Survivors at day 30 was 0. In the data set with P388 [14], this molecule gave an ILS max of 292%.

As for `CC1(C)CC(NC(=O)NP(=O)(N2CC2(C)C)N2CC2(C)C)CC(C)(C)N1` (stereo not given), the Optimal dose with P388 [2] came out at 140. Further, in the data set with L1210 [15], the T/C survival days was determined as 7.4. Further, the figures for the ILS with L1210 [3] and in the data set with P388 [8] were 6% and 38%, respectively. The molecule further showed a T/C in the data set with L1210 [4] of 106%. This molecule displayed a Cures (survivors/total) in the data set on P388 [5] of 0. For the same molecule, in the data set with L1210 [7], the Survivors at day 30 amounted to 0.

In the data set with P388 [10], `CC1(C)CC(NC(=O)NP(=O)(N2CC2)N2CC2)C(C)(C)N1O` (stereo not given) came in with an ILS40 (mg kg-1 day-1) of 19. For the same molecule, in the data set on P388 [2], the Optimal dose turned out to be 100. The Therapeutic ratio in data set [11] turned out to be 5.3. The T/C survival days in the data set with L1210 [16] was determined as 9. In addition, the ILS was 28% in the data set on L1210 [3] and 142% with P388 [8]. The T/C in the data set with L1210 [4] was 128%. The Cures (survivors/total) with P388 [12] amounted to 2. In the data set on P388 [6], the Weight change on day 5 was 5.6%. The same molecule displayed a Survivors at day 30 in the data set on L1210 [7] of 0. For the same molecule, the ILS max with P388 [14] was 232%.

As for `CC1(C)CC(NC(=O)NP(=O)(N2CC2)N2CC2)CC(C)(C)N1`, the ILS40 (mg kg-1 day-1) in the data set with P388 [10] stood at 17.5. In the data set with P388 [2], this molecule registered an Optimal dose of 140. The Therapeutic ratio in data set [11] was determined as 8. Also, the results for the ILS in the data set with L1210 [3], with L1210 [17] and in the data set with P388 [8] were 23%, 17% and 157%, respectively. The T/C in the data set on L1210 [4] worked out at 123%; in the data set on L1210 [17], 117%. This molecule came in with a Cures (survivors/total) with P388 [12] of 2. For the same molecule, the Weight change on day 5 in the data set with P388 [6] was -8.8%. Further, the T/C survival days was found to be 8.6 in the data set on L1210 [18] and 8.2 in the data set on L1210 [20]. The Survivors at day 30 with L1210 [19] and in the data set on L1210 [7] was 0 throughout. Moreover, the ILS max in the data set on P388 [14] worked out at 224%.

In the data set with P388 [2], `O=C(NC12CC3CC(CC(C3)C1)C2)NP(=O)(N1CC1)N1CC1` came in with an Optimal dose of 60. The molecule also registered a T/C survival days with L1210 [21] of 7.7. For the same molecule, the Cures (survivors/total) with P388 [5] was determined as 0. Moreover, in the data set with L1210 [17], the ILS is 10% and the T/C was 110%. In the data set on L1210 [19], this molecule displayed a Survivors at day 30 of 0. Besides, the ILS in the data set with P388 [8] was 35%.

For the molecule `CC1(C)CN1P(=O)(NC(=O)NC12CC3CC(CC(C3)C1)C2)N1CC1(C)C` (stereo not given), in the data set with P388 [2], the Optimal dose amounted to 60. In the data set with P388 [5], this molecule gave a Cures (survivors/total) of 0. For the same molecule, the Weight change on day 5 in the data set with P388 [6] stood at 14%. The molecule further came in with a T/C survival days with L1210 [22] of 6.4. For the same molecule, in the data set with L1210 [17], the ILS was -8% and the T/C came out at 92%. This molecule came in with a Survivors at day 30 in the data set on L1210 [19] of 0. In addition, the ILS with P388 [8] amounted to 32%.

These data come from ChEMBL document CHEMBL1123268 (J Med Chem, 1986).
